Assay results: US20230088127A1, “ISOTOPES OF ALPHA KET[…] RELATED COMPOUNDS AND THEIR USE IN HYPE[…]” (priority 2020, published 2023)

Tests used:
[1] = PAMPA, dodecane membrane with 2% lectin, 24 hours at 37° C., FIG. 7A
[2] = Hypersense DNP polarizer, 3.35 T, 1.45-1.5 K; data not shown
HCT116 IDH1 R132H cells = conditions: for cell permeability: HCT116 R132H cells, FIG. 5
lactate dehydrogenase = conditions: purified lactate dehydrogenase, Hypersense/preclinical 3T MRI, FIG. 3

Molecule	increase in permeability over dimethyl-α-KG (DM-α-KG) [1] [fold]	increase in permeability over α-KG [1] [fold]	time required to polarize fully [2]	cell permeability (HCT116 IDH1 R132H cells)	detection of [1-13C]-2-HG produced in IDH1 mutant cells (HCT116 IDH1 R132H cells; hyperpolarized probe added directly before HP-13C-MRI, FIG. 4)	detection of [1-13C]-2-HG formed by LDH enzymes (lactate dehydrogenase)
CCOC(=O)CCC(=O)C(=O)OCC [DE-[1-^13C]-α-KG, Diethyl 2-oxopentanedioate-5-^12C-1-^13C]	~5	90	two	better permeability	–	–
O=C(CC[12C](=O)O)[13C](=O)O [[1-^13C-5-^12C]-α-KG, 2—Oxopentanedioic-5-^12C-1-^13C acid]	–	–	five	–	detected cleanly	allows for detection of [1-^13C]-2-HG
alpha-ketoglutarate [α-KG, reference compound]	–	–	–	low	–	–
